Measurements from PubChem BioAssay (NCI).
Where “and” joins values, the source holds several entries; their conditions need not be identical. Equal entries are not always repeated. The list shows a part of the results, in another mix than the full data.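 Each cell line was grown in a 96-well plate and treated with one concentration of compound for 48 hours. Values below 10 were considered active.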 Some salts and complexes are drawn in separate pieces, as the source files them; their charges need not balance. Calls of active or inactive are those of the source.

Assays:
Assay in all cases: NCI-60 one-dose screen, 48 h (100 = growth as untreated, 0 = no growth, -100 = all killed)
Details in all cases: 10 µM
MOLT-4 leukemia = tested on: MOLT-4 leukemia
SR leukemia = tested on: SR leukemia
RPMI-8226 leukemia = tested on: RPMI-8226 leukemia
OVCAR-8 ovarian = tested on: OVCAR-8 ovarian
OVCAR-5 ovarian = tested on: OVCAR-5 ovarian
OVCAR-4 ovarian = tested on: OVCAR-4 ovarian
SK-OV-3 ovarian = tested on: SK-OV-3 ovarian
IGROV1 ovarian = tested on: IGROV1 ovarian
OVCAR-3 ovarian = tested on: OVCAR-3 ovarian
HS 578T breast = tested on: HS 578T breast

Measured: growth

CN/C(N)=N/[N+](=O)[O-]
inactive: MOLT-4 leukemia 93.2% | SR leukemia 95.9% | RPMI-8226 leukemia 114% | OVCAR-8 ovarian 106% | OVCAR-5 ovarian 101% | OVCAR-4 ovarian 101% | SK-OV-3 ovarian 110% | IGROV1 ovarian 129% | OVCAR-3 ovarian 109% | HS 578T breast 114%

O=[N+]([O-])N(CCOC(N(F)F)(N(F)F)N(F)F)CC([N+](=O)[O-])([N+](=O)[O-])[N+](=O)[O-]
inactive: MOLT-4 leukemia 106% | SR leukemia 96.3% | RPMI-8226 leukemia 108% | OVCAR-8 ovarian 103% | OVCAR-5 ovarian 104% | OVCAR-4 ovarian 113% | SK-OV-3 ovarian 96.4% | IGROV1 ovarian 106% | OVCAR-3 ovarian 118% | HS 578T breast 111%

CP(=S)(Cl)N(CCCl)CCCl (stereo not given)
inactive: MOLT-4 leukemia 93.7% | SR leukemia 103% | RPMI-8226 leukemia 93.9% | OVCAR-8 ovarian 98% | OVCAR-5 ovarian 91.2% | OVCAR-4 ovarian 98.5% | SK-OV-3 ovarian 111% | IGROV1 ovarian 92.3% | OVCAR-3 ovarian 128%

CNc1ccccc1.O=[N+]([O-])c1cc([N+](=O)[O-])c(O)c([N+](=O)[O-])c1
inactive: MOLT-4 leukemia 99.5% | SR leukemia 95% | RPMI-8226 leukemia 98.5% | OVCAR-8 ovarian 106% | OVCAR-5 ovarian 108% | OVCAR-4 ovarian 91.5% | SK-OV-3 ovarian 107% | IGROV1 ovarian 116% | OVCAR-3 ovarian 121% | HS 578T breast 115%

O=C1C(O)=C([N+](=O)[O-])C(=O)C(O)=C1[N+](=O)[O-]
inactive: MOLT-4 leukemia 94.9% | SR leukemia 88.5% | OVCAR-8 ovarian 105% | OVCAR-5 ovarian 105% | OVCAR-4 ovarian 116% | SK-OV-3 ovarian 94.8% | IGROV1 ovarian 94.6% | OVCAR-3 ovarian 102%

O=[N+]([O-])c1cc([N+](=O)[O-])c(Oc2ccccc2)c([N+](=O)[O-])c1
inactive: MOLT-4 leukemia 81.8% | SR leukemia 91.7% | RPMI-8226 leukemia 93% | OVCAR-8 ovarian 98.4% | OVCAR-5 ovarian 126% | OVCAR-4 ovarian 109% | SK-OV-3 ovarian 110% | IGROV1 ovarian 105% | OVCAR-3 ovarian 118% | HS 578T breast 116%

Cc1ccc(Nc2c([N+](=O)[O-])cc([N+](=O)[O-])cc2[N+](=O)[O-])cc1
inactive: MOLT-4 leukemia 67.3% | SR leukemia 87.2% | RPMI-8226 leukemia 65.4% | OVCAR-8 ovarian 84.5% | OVCAR-5 ovarian 89.2% | SK-OV-3 ovarian 87.8% | IGROV1 ovarian 79.8% | OVCAR-3 ovarian 20.1% | HS 578T breast 93.8%

O=[N+]([O-])c1cc([N+](=O)[O-])c(O)c([N+](=O)[O-])c1.c1ccc([I+]c2ccccc2)cc1
inactive: MOLT-4 leukemia 55.5% | SR leukemia 29.7% | RPMI-8226 leukemia 51.2% | OVCAR-8 ovarian 36.6% | OVCAR-5 ovarian 87.2% | OVCAR-4 ovarian 54.4% | SK-OV-3 ovarian 62.8% | IGROV1 ovarian 63.5% | OVCAR-3 ovarian 72.1% | HS 578T breast 84.3%

CCCOP(=S)(Cl)OCCC
inactive: MOLT-4 leukemia 98.8% | SR leukemia 98% | RPMI-8226 leukemia 102% | OVCAR-8 ovarian 97.9% | OVCAR-5 ovarian 99.7% | OVCAR-4 ovarian 101% | SK-OV-3 ovarian 114% | IGROV1 ovarian 112% | OVCAR-3 ovarian 107% | HS 578T breast 105%

O=[N+]([O-])c1cc([N+](=O)[O-])c(C(F)(F)F)c([N+](=O)[O-])c1O
inactive: MOLT-4 leukemia 93.9% | RPMI-8226 leukemia 101% | OVCAR-8 ovarian 101% | OVCAR-5 ovarian 94.9% | OVCAR-4 ovarian 98.2% | SK-OV-3 ovarian 109% | IGROV1 ovarian 104% | OVCAR-3 ovarian 108% | HS 578T breast 88%

N=C(N)N(N)[N+](=O)[O-]
inactive: MOLT-4 leukemia 95.3% | SR leukemia 91.2% | RPMI-8226 leukemia 107% | OVCAR-8 ovarian 106% | OVCAR-5 ovarian 101% | OVCAR-4 ovarian 109% | SK-OV-3 ovarian 105% | OVCAR-3 ovarian 105% | HS 578T breast 110%

O=[N+]([O-])c1cccc([N+](=O)[O-])c1O
inactive: MOLT-4 leukemia 105% | SR leukemia 105% | RPMI-8226 leukemia 134% | OVCAR-8 ovarian 105% | OVCAR-5 ovarian 106% | OVCAR-4 ovarian 112% | SK-OV-3 ovarian 106% | IGROV1 ovarian 115% | OVCAR-3 ovarian 114% | HS 578T breast 102%

OCCSCCO
inactive: MOLT-4 leukemia 101% | RPMI-8226 leukemia 98.3% | OVCAR-8 ovarian 107% | OVCAR-5 ovarian 110% | OVCAR-4 ovarian 114% | SK-OV-3 ovarian 104% | IGROV1 ovarian 100% | OVCAR-3 ovarian 114% | HS 578T breast 102%

COC(=O)C(O)(c1ccccc1)c1ccccc1
inactive: MOLT-4 leukemia 120% | SR leukemia 103% | RPMI-8226 leukemia 106% | OVCAR-8 ovarian 102% | OVCAR-5 ovarian 101% | OVCAR-4 ovarian 113% | SK-OV-3 ovarian 94.1% | OVCAR-3 ovarian 123% | HS 578T breast 103%

CN1CCN(CCOC(=O)C(O)(c2ccccc2)c2ccccc2)CC1
inactive: MOLT-4 leukemia 114% | SR leukemia 127% | RPMI-8226 leukemia 114% | OVCAR-8 ovarian 110% | OVCAR-5 ovarian 93% | OVCAR-4 ovarian 99% | SK-OV-3 ovarian 108% | OVCAR-3 ovarian 98.1% | HS 578T breast 97.6%

O=C1N([N+](=O)[O-])CCN1[N+](=O)[O-]
inactive: MOLT-4 leukemia 108% | SR leukemia 113% | RPMI-8226 leukemia 100% | OVCAR-8 ovarian 100% | OVCAR-5 ovarian 97.3% | OVCAR-4 ovarian 103% | SK-OV-3 ovarian 103% | IGROV1 ovarian 120% | OVCAR-3 ovarian 112% | HS 578T breast 107%

O=[N+]([O-])OCC(O[N+](=O)[O-])C(CO[N+](=O)[O-])O[N+](=O)[O-] (stereo not given)
inactive: MOLT-4 leukemia 101% | SR leukemia 105% | RPMI-8226 leukemia 108% | OVCAR-8 ovarian 109% | OVCAR-5 ovarian 103% | OVCAR-4 ovarian 122% | SK-OV-3 ovarian 125% | OVCAR-3 ovarian 106%

O=[N+]([O-])N(CCN(CC(Br)([N+](=O)[O-])[N+](=O)[O-])[N+](=O)[O-])CC(Br)([N+](=O)[O-])[N+](=O)[O-]
inactive: MOLT-4 leukemia 92.7% | SR leukemia 94.5% | RPMI-8226 leukemia 101% | OVCAR-8 ovarian 97.1% | OVCAR-5 ovarian 101% | OVCAR-4 ovarian 101% | SK-OV-3 ovarian 101% | IGROV1 ovarian 114% | OVCAR-3 ovarian 102% | HS 578T breast 102%

CN(CCO)CCCl.O=[N+]([O-])c1cc([N+](=O)[O-])c(O)c([N+](=O)[O-])c1
inactive: MOLT-4 leukemia 90.9% | SR leukemia 78.7% | RPMI-8226 leukemia 97.5% | OVCAR-8 ovarian 102% | OVCAR-5 ovarian 110% | OVCAR-4 ovarian 105% | SK-OV-3 ovarian 100% | IGROV1 ovarian 101% | OVCAR-3 ovarian 105% | HS 578T breast 109%

CN(C)CCS
inactive: MOLT-4 leukemia 112% and 114% | SR leukemia 119% and 97.8% | RPMI-8226 leukemia 108% and 102% | OVCAR-8 ovarian 124% and 97.5% | OVCAR-5 ovarian 108% and 95.6% | OVCAR-4 ovarian 116% and 113% | SK-OV-3 ovarian 110% and 109% | OVCAR-3 ovarian 107% and 104% | HS 578T breast 129% and 81.2%

CC(C)N1CCN(CCOC(=O)C(O)(c2ccccc2)c2ccccc2)CC1
inactive: MOLT-4 leukemia 88.2% | SR leukemia 92.1% | RPMI-8226 leukemia 98.8% | OVCAR-8 ovarian 99.9% | OVCAR-5 ovarian 103% | OVCAR-4 ovarian 116% | SK-OV-3 ovarian 85.6% | IGROV1 ovarian 111% | OVCAR-3 ovarian 103% | HS 578T breast 98.4%

CCN(CC)CCOC(=O)C(O)(c1ccccc1)c1cc(C)c(C)c(C)c1C (stereo not given)
inactive: MOLT-4 leukemia 81.6% | SR leukemia 83.8% | RPMI-8226 leukemia 108% | OVCAR-8 ovarian 95% | OVCAR-5 ovarian 91.7% | OVCAR-4 ovarian 101% | SK-OV-3 ovarian 87.8% | IGROV1 ovarian 76.3% | OVCAR-3 ovarian 105% | HS 578T breast 97.7%

Nc1cccc(Cl)c1.O=[N+]([O-])c1cc([N+](=O)[O-])c(O)c([N+](=O)[O-])c1
inactive: MOLT-4 leukemia 102% | SR leukemia 101% | RPMI-8226 leukemia 92.5% | OVCAR-8 ovarian 102% | OVCAR-5 ovarian 104% | OVCAR-4 ovarian 110% | SK-OV-3 ovarian 108% | IGROV1 ovarian 103% | OVCAR-3 ovarian 114% | HS 578T breast 97.4%

O=[N+]([O-])c1cc([N+](=O)[O-])c(Nc2ccc(Cl)cc2)c([N+](=O)[O-])c1
inactive: OVCAR-5 ovarian 13.6% | SK-OV-3 ovarian 58.8% | IGROV1 ovarian 12.6% | HS 578T breast 21.8%
active: MOLT-4 leukemia 5.66% | SR leukemia -13% | RPMI-8226 leukemia -27.9% | OVCAR-8 ovarian 4.44% | OVCAR-3 ovarian -23.3%

CCN(CC)CCOC(=O)C(O)(c1ccccc1)c1cc(C)cc(C)c1C (stereo not given)
inactive: MOLT-4 leukemia 88.7% | SR leukemia 92.8% | RPMI-8226 leukemia 103% | OVCAR-8 ovarian 103% | OVCAR-5 ovarian 95.2% | OVCAR-4 ovarian 110% | SK-OV-3 ovarian 91% | IGROV1 ovarian 106% | OVCAR-3 ovarian 101% | HS 578T breast 110%

CCOC(=O)Nc1c([N+](=O)[O-])cc([N+](=O)[O-])cc1[N+](=O)[O-]
inactive: SR leukemia 78% | RPMI-8226 leukemia 83.9% | OVCAR-8 ovarian 100% | OVCAR-5 ovarian 139% | OVCAR-4 ovarian 67.8% | SK-OV-3 ovarian 117% | IGROV1 ovarian 106% | OVCAR-3 ovarian 94.1% | HS 578T breast 92.7%

O=[N+]([O-])c1ccc(Oc2c([N+](=O)[O-])cc([N+](=O)[O-])cc2[N+](=O)[O-])cc1
inactive: MOLT-4 leukemia 107% | SR leukemia 92.8% | RPMI-8226 leukemia 101% | OVCAR-8 ovarian 102% | OVCAR-5 ovarian 122% | OVCAR-4 ovarian 99.8% | SK-OV-3 ovarian 108% | IGROV1 ovarian 111% | HS 578T breast 97.7%
